# Test results published in ChEMBL document CHEMBL1811796, “Requirements for mammalian carboxylesterase inhibition by substituted ethane-1,2-diones” (Bioorg Med Chem, 2011).
# Target: T1, Cocaine esterase (Homo sapiens, UniProt O00748)
# T1 sequence (O00748 whole entry): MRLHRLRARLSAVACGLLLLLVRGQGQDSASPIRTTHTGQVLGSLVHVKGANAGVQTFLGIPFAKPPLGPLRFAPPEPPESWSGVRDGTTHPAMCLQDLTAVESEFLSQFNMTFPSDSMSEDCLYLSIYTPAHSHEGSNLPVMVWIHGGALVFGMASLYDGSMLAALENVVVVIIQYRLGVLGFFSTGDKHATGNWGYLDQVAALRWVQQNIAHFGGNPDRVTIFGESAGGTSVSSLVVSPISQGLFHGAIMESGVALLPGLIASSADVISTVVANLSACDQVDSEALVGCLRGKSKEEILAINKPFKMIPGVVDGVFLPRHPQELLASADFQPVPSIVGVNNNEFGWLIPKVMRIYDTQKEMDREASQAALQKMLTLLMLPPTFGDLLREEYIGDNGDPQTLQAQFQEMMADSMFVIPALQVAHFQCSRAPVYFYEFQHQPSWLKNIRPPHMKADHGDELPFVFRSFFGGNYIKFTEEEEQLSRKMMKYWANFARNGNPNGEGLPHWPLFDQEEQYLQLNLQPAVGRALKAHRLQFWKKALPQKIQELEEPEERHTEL
# Experiment: Inhibition of human intestinal carboxylesterase using o-nitrophenyl acetate as substrate after 5 mins by spectrophotometry
structure (smiles),measurement,value
CCCC(=O)C(=O)CCC,Ki,4.67 µM
